Measurements from PubChem BioAssay (NCATS).
This is a selection; strong and weak results do not stand in their true shares. Results filed as inconclusive are left out. The source made the active and inactive calls. Unless noted, the call rests on the fitted dose curve; in most records, active means well fitted curve in the direction sought with a large enough effect; inconclusive means small, poorly fitted or top-dose-only effect, or another doubt; inactive means no such curve, though single readings can be large; an effect the other way counts as inactive or inconclusive.

The chains behind the UniProt entries cited, without tags or fusion partners. Where a name states a change or a piece, a line headed by the entry shows the natural chain unless it says otherwise.
UniProt O15297: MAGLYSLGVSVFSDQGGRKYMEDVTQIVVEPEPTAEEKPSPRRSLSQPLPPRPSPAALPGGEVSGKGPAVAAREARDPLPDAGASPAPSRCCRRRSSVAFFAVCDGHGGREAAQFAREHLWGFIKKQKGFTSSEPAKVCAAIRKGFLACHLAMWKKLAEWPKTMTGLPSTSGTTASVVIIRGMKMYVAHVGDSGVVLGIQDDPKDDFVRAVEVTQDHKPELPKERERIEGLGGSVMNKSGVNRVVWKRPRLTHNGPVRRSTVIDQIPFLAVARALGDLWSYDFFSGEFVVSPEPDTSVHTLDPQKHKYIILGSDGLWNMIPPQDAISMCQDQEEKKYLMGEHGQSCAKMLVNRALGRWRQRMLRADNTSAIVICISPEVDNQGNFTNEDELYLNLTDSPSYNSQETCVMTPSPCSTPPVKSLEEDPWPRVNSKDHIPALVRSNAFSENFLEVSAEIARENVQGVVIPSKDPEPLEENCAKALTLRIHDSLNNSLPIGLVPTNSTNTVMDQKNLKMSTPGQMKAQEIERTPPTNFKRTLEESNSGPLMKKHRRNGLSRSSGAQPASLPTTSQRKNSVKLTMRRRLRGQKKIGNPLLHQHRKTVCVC
UniProt Q99828: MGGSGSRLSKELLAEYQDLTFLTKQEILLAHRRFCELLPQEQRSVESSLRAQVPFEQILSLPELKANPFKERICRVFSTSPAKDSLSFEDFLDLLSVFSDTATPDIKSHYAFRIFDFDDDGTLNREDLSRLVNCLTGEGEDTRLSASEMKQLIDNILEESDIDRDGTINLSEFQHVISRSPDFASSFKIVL
UniProt P10635, whole entry, looked up: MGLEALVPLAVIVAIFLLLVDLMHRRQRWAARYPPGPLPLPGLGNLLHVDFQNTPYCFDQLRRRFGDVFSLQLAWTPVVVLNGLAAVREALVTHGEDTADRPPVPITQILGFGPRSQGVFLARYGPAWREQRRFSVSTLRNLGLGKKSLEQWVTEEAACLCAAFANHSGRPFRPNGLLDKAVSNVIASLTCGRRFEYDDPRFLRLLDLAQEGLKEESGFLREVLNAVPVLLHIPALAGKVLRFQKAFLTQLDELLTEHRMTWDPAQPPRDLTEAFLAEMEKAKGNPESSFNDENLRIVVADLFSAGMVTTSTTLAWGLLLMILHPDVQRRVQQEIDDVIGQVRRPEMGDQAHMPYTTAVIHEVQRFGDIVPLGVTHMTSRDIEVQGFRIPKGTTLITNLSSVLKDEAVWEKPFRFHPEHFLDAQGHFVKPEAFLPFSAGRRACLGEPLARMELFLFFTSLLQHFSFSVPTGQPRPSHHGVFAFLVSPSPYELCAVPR
UniProt P11712, whole entry, looked up: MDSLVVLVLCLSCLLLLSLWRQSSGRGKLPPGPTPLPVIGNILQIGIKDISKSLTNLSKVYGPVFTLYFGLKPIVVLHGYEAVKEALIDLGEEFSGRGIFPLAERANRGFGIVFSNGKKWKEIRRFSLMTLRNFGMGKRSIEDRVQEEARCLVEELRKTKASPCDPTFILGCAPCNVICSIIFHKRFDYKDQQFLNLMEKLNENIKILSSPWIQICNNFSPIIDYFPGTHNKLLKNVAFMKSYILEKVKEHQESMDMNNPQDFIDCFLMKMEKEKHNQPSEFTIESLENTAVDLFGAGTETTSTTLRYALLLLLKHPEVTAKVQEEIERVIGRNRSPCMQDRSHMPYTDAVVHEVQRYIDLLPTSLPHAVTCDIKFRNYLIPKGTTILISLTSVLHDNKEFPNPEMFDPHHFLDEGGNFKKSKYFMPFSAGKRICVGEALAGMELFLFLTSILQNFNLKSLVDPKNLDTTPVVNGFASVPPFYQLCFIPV

What was measured:
[1] = target: Protein phosphatase 1D (Homo sapiens) (UniProt O15297); experiment: Rhodamine-PBP qHTS Assay for Modulators of WT P53-Induced Phosphatase 1 (WIP1) (AID 1347425); details: recombinant WIP1, Rhodamine-PBP phosphate fluorescence, real-time; at 57.5 µM (top of the series) unless noted; further: % of control where 0% means no effect
In short: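 The read-out is the change in Rhodamine-PBP fluorescence (f1 - f0, ex 525/em 598 nm) as Pi is released, read each minute for 11 min. Final reaction: 5 nM WIP1, 10 uM phosphopeptide VEPPL-pS-QETFS, 10 uM Rh-PBP, 50 mM Tris-HCl pH 7.5, 30 mM MgCl2. Compound was preincubated with enzyme for 1 hour at room temperature.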

[2] = target: Calcium and integrin-binding protein 1 (Homo sapiens) (UniProt Q99828); experiment: Primary qHTS for Identification of Calcium Integrin Binding Protein 1 (CIB1) Competitor (AID 1508620); details: CIB1-GST / FITC-alphaIIb peptide fluorescence polarization; at 114 µM (top of the series) unless noted;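 further: GST tagged CIB1 binding a fluorescein labelled alphaIIb integrin peptide tracer; top concentration of the series differs between compounds; on the % scale 0 is the no-effect control and ±100 the full control effect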
[3] = Primary qHTS for small molecule stabilizers of the endoplasmic reticulum resident proteome: Secreted ER Calcium Modulated Protein (SERCaMP) assay (AID 1508630); details: SH-SY5Y GLuc-SERCaMP (Gaussia luciferase released on ER calcium loss) secretion, thapsigargin, luminescence; at 38.4 µM (top of the series); further: on the % scale 0 is the no-effect control and ±100 the full control effect
In short: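 GLuc-SERCaMP-expressing SH-SY5Y cells, pretreated 16 h with compound, are challenged with thapsigargin to empty ER calcium stores; after 4 h, coelenterazine is added directly to the medium and luminescence is imaged.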

[4] = A High-Content qHTS Against Drug Library for the Identification of Small Molecules that Inhibit DYT1 Early Onset Primary Dystonia-Associated Cell Pathology (AID 1645839; calls by dose curve)
In short: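 In this high-content image screen, delE TorsinA mislocalization in inducible Flp-In 293 cells is scored as %pathology, with cell count serving as the counterscreen. Compound exposure lasts 48 h under tetracycline induction in reduced-serum medium.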

[5] = target: Cytochrome P450 2D6 (Homo sapiens) (UniProt P10635); experiment: Cytochrome P450 family 2 subfamily D member 6 (CYP2D6) small molecule antagonists: luciferase biochemical (cell-free) qHTS assay (AID 1645840; active means well fitted curve in the direction sought with a large enough effect in the repeat runs; an effect the other way counts as inactive or inconclusive; further: potency means the concentration at half of the fitted maximal effect; nearly all actives have a fitted effect of over 55% in size)
In short: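 P450-Glo luminescent screen: recombinant CYP2D6 enzyme–proluciferin substrate mix preincubated with compound 10 min at room temperature, then NADPH regeneration added for 1 h at room temperature. Detection reagent added for 20 min; luciferin light read as relative luminescence units.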

[6] = target: Cytochrome P450 2C9 (Homo sapiens) (UniProt P11712); experiment: Cytochrome P450 family 2 subfamily C member 9 (CYP2C9) small molecule antagonists: luciferase qHTS assay (AID 1645842; active means well fitted curve in the direction sought with a large enough effect in the repeat runs; an effect the other way counts as inactive or inconclusive; further: on the % scale 0 is the no-effect control and ±100 the full control effect; nearly all actives have a fitted effect of over 55% in size); details: P450-Glo CYP2C9 enzyme assay, luciferin luminescence; at 57.4 µM (top of the series) unless noted
In short: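 Luminescence, after 20 min with luciferin detection reagent, reflected CYP2C9 turnover during a 1 h NADPH-driven reaction at 37C. Enzyme-substrate mix contained 0.4% bovine serum albumin and was preincubated with compound 10 min at room temperature.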

[7] = test system: CRL-7250; experiment: Cytotoxic Profiling of Annotated Libraries Using Quantitative High-Throughput Screening (AID 1296008); details: Five cell lines viability, CellTiter-Glo ATP luminescence, 48-72 h; hits give low values; further: nearly all actives have a fitted effect of over 60% in size; on max response: on the % scale 0 is the no-effect control and ±100 the full control effect
[8] = test system: HEK293; experiment: as above; details: Five cell lines viability, CellTiter-Glo ATP luminescence, 48-72 h; max response: hits give low values
[9] = test system: HaCat; experiment: as above; details: Five cell lines viability, CellTiter-Glo ATP luminescence, 48-72 h; hits give low values
[10] = test system: KB-3-1; experiment: as above; details: Five cell lines viability, CellTiter-Glo ATP luminescence, 48-72 h, hits give low values
[11] = test system: NIH3T3; experiment: as above; details: Five cell lines viability, CellTiter-Glo ATP luminescence, 48-72 h; hits give low values
[12] = test system: CRL-7250; experiment: qHTS assay to identify novel small-molecules to repurpose for Merkel cell carcinoma treatment (AID 1296009); details: MCC and control cell lines, CellTiter-Glo viability, 72 h; at 44.8 µM (top of the series) unless noted; further: nearly all actives have a fitted effect of over 60% in size; on activity change, negative = cytotoxicity: on the % scale 0 is the no-effect control and ±100 the full control effect
[13] = test system: HACAT; experiment: as above; details: MCC and control cell lines, CellTiter-Glo viability, 72 h; at 44.8 µM (top of the series)
[14] = test system: HEK293T; experiment: as above; details: MCC and control cell lines, CellTiter-Glo viability, 72 h; at 44.8 µM (top of the series)
[15] = test system: MCC-13; experiment: as above; details: MCC and control cell lines, CellTiter-Glo viability, 72 h; at 46 µM (top of the series) unless noted
[16] = test system: MCC-26; experiment: as above; details: MCC and control cell lines, CellTiter-Glo viability, 72 h; at 46 µM (top of the series) unless noted
[17] = test system: MKL-1; experiment: as above; details: MCC and control cell lines, CellTiter-Glo viability, 72 h; at 46 µM (top of the series) unless noted
[18] = test system: MKL-2; experiment: as above; details: MCC and control cell lines, CellTiter-Glo viability, 72 h; at 46 µM (top of the series) unless noted
[19] = test system: UISO; experiment: as above; details: MCC and control cell lines, CellTiter-Glo viability, 72 h; at 46 µM (top of the series)
[20] = test system: C33A; experiment: Primary qHTS to identify gynecologic anti-cancer compounds using libraries of approved drugs and bioactive compounds (AID 1345084); details: Gynecologic cancer cell panel viability, ATPlite luminescence, 48 h; at 57.5 µM (top of the series) unless noted; further: on the % scale 0 is the no-effect control and ±100 the full control effect; nearly all actives have a fitted effect of over 55% in size
In short: (§1)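 Luminescence from the ATPlite ATP-monitoring reagent indicates viable cell number; lower signal means cytotoxicity. Cells received compound 16 h after seeding and were exposed for 48 h across five concentrations.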

[21] = test system: CAOV3; experiment: as above; details: Gynecologic cancer cell panel viability, ATPlite luminescence, 48 h; at 57.5 µM (top of the series) unless noted
In short: as §1

[22] = test system: CASKI; experiment: as above; details: Gynecologic cancer cell panel viability, ATPlite luminescence, 48 h; at 57.5 µM (top of the series) unless noted
In short: as §1

[23] = test system: Es-2; experiment: as above; details: Gynecologic cancer cell panel viability, ATPlite luminescence, 48 h; at 57.5 µM (top of the series) unless noted
In short: as §1

[24] = test system: HeLa; experiment: as above; details: Gynecologic cancer cell panel viability, ATPlite luminescence, 48 h; at 57.5 µM (top of the series) unless noted
In short: as §1

[25] = test system: Hek293T; experiment: as above; details: Gynecologic cancer cell panel viability, ATPlite luminescence, 48 h, control line for the selectivity index; at 57.5 µM (top of the series) unless noted
In short: as §1

[26] = test system: JEG-3; experiment: as above; details: Gynecologic cancer cell panel viability, ATPlite luminescence, 48 h; at 57.5 µM (top of the series) unless noted
In short: as §1

[27] = test system: OV90; experiment: as above; details: Gynecologic cancer cell panel viability, ATPlite luminescence, 48 h; at 57.5 µM (top of the series) unless noted
In short: as §1

[28] = test system: PA-1; experiment: as above; details: Gynecologic cancer cell panel viability, ATPlite luminescence, 48 h; at 57.5 µM (top of the series) unless noted
In short: as §1

[29] = test system: SKOV3; experiment: as above; details: Gynecologic cancer cell panel viability, ATPlite luminescence, 48 h; at 57.5 µM (top of the series) unless noted
In short: as §1

[30] = test system: Tov-21-G; experiment: as above; details: Gynecologic cancer cell panel viability, ATPlite luminescence, 48 h; at 57.5 µM (top of the series) unless noted
In short: as §1

[31] = test system: Tov112D; experiment: as above; details: Gynecologic cancer cell panel viability, ATPlite luminescence, 48 h; at 57.5 µM (top of the series) unless noted
In short: as §1

**Q.** For CN(C(=O)Cc1ccccc1)[C@H]1CC[C@@]2(CCCO2)C[C@@H]1N1CCCC1, which activity change, negative = inhibition [1] is on record?
**A.** Its activity change, negative = inhibition is inactive: 22.1%.

**Q.** And the activity change, negative = inhibition [2]?
**A.** Its activity change, negative = inhibition is inactive: -11.7%.

**Q.** What about the activity change, negative = inhibition [3] of the same compound?
**A.** The activity change, negative = inhibition was inactive: -16%.

**Q.** And the Potency [4]?
**A.** Its Potency is “inactive”.

**Q.** What about the Potency [5] of the same compound?
**A.** Its Potency is active: 7.76 µM.

**Q.** And the activity change, negative = inhibition [6]?
**A.** Its activity change, negative = inhibition is inactive: -3.85%.

**Q.** And the outcome [7]?
**A.** Its outcome is “inactive”.

**Q.** And the outcome [8]?
**A.** The outcome was “inactive”.

**Q.** And the outcome [9]?
**A.** The outcome was “inactive”.

**Q.** What about the max response [10] of the same compound?
**A.** The max response was inactive: 1.21%.

**Q.** What about the max response [11] of the same compound?
**A.** Its max response is inactive: -5.17%.

**Q.** And the outcome [12]?
**A.** The outcome was “inactive”.

**Q.** What about the outcome [13] of the same compound?
**A.** The outcome was “inactive”.

**Q.** What about the outcome [14] of the same compound?
**A.** Its outcome is “inactive”.

**Q.** What about the activity change, negative = cytotoxicity [15] of the same compound?
**A.** Its activity change, negative = cytotoxicity is inactive: 6.76%.

**Q.** And the activity change, negative = cytotoxicity [16]?
**A.** The activity change, negative = cytotoxicity was inactive: 7.08%.

**Q.** What about the activity change, negative = cytotoxicity [17] of the same compound?
**A.** The activity change, negative = cytotoxicity was inactive: 4.11%.

**Q.** And the activity change, negative = cytotoxicity [18]?
**A.** The activity change, negative = cytotoxicity was inactive: 2.13%.

**Q.** And the activity change, negative = cytotoxicity [19]?
**A.** The activity change, negative = cytotoxicity was inactive: 21.2%.

**Q.** And the activity change, negative = cytotoxicity [20]?
**A.** The activity change, negative = cytotoxicity was inactive: -4.64%.

**Q.** And the activity change, negative = cytotoxicity [21]?
**A.** Its activity change, negative = cytotoxicity is inactive: 9.65%.

**Q.** And the activity change, negative = cytotoxicity [22]?
**A.** The activity change, negative = cytotoxicity was inactive: -4%.

**Q.** What about the activity change, negative = cytotoxicity [23] of the same compound?
**A.** The activity change, negative = cytotoxicity was inactive: 10.4%.

**Q.** And the activity change, negative = cytotoxicity [24]?
**A.** The activity change, negative = cytotoxicity was inactive: -2.63%.

**Q.** And the activity change, negative = cytotoxicity [25]?
**A.** Its activity change, negative = cytotoxicity is inactive: 21.1%.

**Q.** And the activity change, negative = cytotoxicity [26]?
**A.** Its activity change, negative = cytotoxicity is inactive: -2.83%.

**Q.** And the activity change, negative = cytotoxicity [27]?
**A.** The activity change, negative = cytotoxicity was inactive: 20.3%.

**Q.** What about the activity change, negative = cytotoxicity [28] of the same compound?
**A.** Its activity change, negative = cytotoxicity is inactive: 28.7%.

**Q.** And the activity change, negative = cytotoxicity [29]?
**A.** Its activity change, negative = cytotoxicity is inactive: 1.77%.

**Q.** And the activity change, negative = cytotoxicity [30]?
**A.** The activity change, negative = cytotoxicity was inactive: 13.3%.

**Q.** What about the activity change, negative = cytotoxicity [31] of the same compound?
**A.** The activity change, negative = cytotoxicity was inactive: 0.729%.
